# Ab-14 light chain CDR variants: yeast mating affinities

Binding partner: SARS-CoV-2 spike HR2 peptide, sequence PDVDLGDISGINAS.

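The variants were designed computationally from a first round of random CDR variants and then made and measured. Group labels follow the data file (En: ensemble of fine-tuned language models; GP: Gaussian process model; HC: hill climbing; Gen: genetic algorithm; Gibbs: Gibbs sampling; a sequence that several methods proposed may carry one label only). AlphaSeq pools MATa yeast showing the antibodies with MATalpha yeast showing the peptide. After mating in shaken culture at 30 °C for 16 h, diploids were selected and their barcode pairs sequenced. Scores were corrected for input abundance and mapped to Kd with protein pairs of known affinity run in the same pool. Each pool was mated in six replicate cultures.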

Parent: Ab-14, a human scFv built as VH, three GGGGS repeats, VL. Only the CDRs of the light chain vary.
VH: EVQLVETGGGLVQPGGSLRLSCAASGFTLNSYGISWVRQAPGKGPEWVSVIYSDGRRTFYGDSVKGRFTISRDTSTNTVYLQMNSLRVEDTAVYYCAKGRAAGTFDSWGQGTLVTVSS
VL: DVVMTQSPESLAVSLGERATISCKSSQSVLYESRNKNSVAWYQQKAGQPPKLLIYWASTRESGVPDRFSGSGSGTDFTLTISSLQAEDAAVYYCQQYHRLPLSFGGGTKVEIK

The parent's light chain CDRs are KSSQSVLYESRNKNSVA, WASTRES, QQYHRLPLS; each variant's own CDRs replace them letter for letter. This list holds designs with more than six substitutions. Values are log10 of the apparent Kd in nM; lower means stronger binding. Where no diploid with the target was found in that replicate, the entry reads "n.d.": below detection, most likely a poor binder, though not proof of it. The authors averaged sequences with at least three values out of six and counted those with two or fewer as poor binders. Background: pairings of all light chain designs with three empty control strains gave a value in 4% of cases (median 2.64, 5th percentile 1.59). Values in that range, when seen in few replicates, are hard to tell from nonspecific mating. The control count says in how many pairings with the empty strains this scFv gave a signal, with their mean in brackets. The range of this assay differs from that of the first round, and the authors advise against merging the two.

| CDR-L1 | CDR-L2 | CDR-L3 | group | log10 Kd, replicates | signal with controls |
|---|---|---|---|---|---|
| SVTRYTDENGLKMSSVA | GAAERMT | QQYHRLPLT | En_Gibbs | 0.22 0.13 0.00 -0.08 0.04 0.14 | 2 of 18 (3.86) |
| KIGQQVTYESTNKNAIA | QMTTRES | QQYHRLPLS | En_HC | 0.90 1.02 0.38 -0.30 0.59 0.44 | 0 of 18 |
| KQSPQQLYSSRNKNQVA | DASTRES | QQYHRLPLS | GP_Gibbs | 1.40 1.14 0.88 1.41 0.90 0.82 | 1 of 18 (2.35) |
| KISMLVNFLGKNKNSVA | QMSTRES | QQYDRLPLS | En_HC | 1.30 1.35 0.89 1.09 0.84 1.02 | 1 of 18 (2.46) |
| RMSQIIQENVRQYNAVA | NGETRTA | QHYSRLPLE | En_Gibbs | 1.03 1.04 0.67 0.88 1.04 0.76 | 2 of 18 (2.33) |
| NVSQMVLTGQTLRNSVA | HASTRFN | QQYHRLPLI | En_HC | 1.68 1.90 1.24 1.47 1.52 1.79 | 1 of 18 (2.77) |
| SVTRETDGNGLKWNSVA | DAAEAMT | QQYQRLPLT | En_Gibbs | 0.13 0.07 0.10 -0.17 0.07 0.02 | 1 of 18 (2.66) |
| QITQVQQYDTPNTYNVA | DARVSGR | QQYSQLPLT | En_Gibbs | n.d. n.d. n.d. n.d. n.d. 1.65 | 0 of 18 |
| KIGMTLNQLYEKVNNVA | DLVERED | QQYHRLPLS | En_Gen | 0.63 0.45 0.42 0.66 0.43 0.44 | 1 of 18 (2.76) |
| MLSSVLHMLGVKKNSIA | DLVLRAN | QQYARLPLM | En_Gen | n.d. n.d. n.d. n.d. n.d. 1.65 | 0 of 18 |
| KFGQGVHVESIMTNSIA | QTSTREE | QQYDRLPLS | En_HC | 0.45 0.35 0.47 0.49 0.36 0.83 | 0 of 18 |
| HFAHPWQSGYDSKQNVA | NDSTVMT | QHYNRLPLS | En_Gibbs | n.d. n.d. n.d. 4.43 2.87 n.d. | 0 of 18 |
| KLEQGVDMESRNKNSVA | NASMRED | QQYHRLPLS | GP_Gibbs | 0.00 0.07 0.02 0.46 0.46 1.27 | 1 of 18 (2.16) |
| SCTSEMDQQQEQYNSVA | GVQKTAD | QQYGRLPLS | En_Gibbs | 1.28 1.50 1.14 1.56 1.28 1.41 | 0 of 18 |
| MLLQSTMYGEKNRNSVA | HASTRED | QQYHRLPLI | En_HC | 1.04 0.90 0.70 0.81 1.10 0.64 | 0 of 18 |
| KLYERGEISSKVDRSIA | EMSTRCE | QSYQRLPLS | En_Gibbs | 0.79 0.65 0.62 0.28 0.77 1.31 | 1 of 18 (3.55) |
| MISQIYNMGQFAINSVA | QASIRNS | QQYDRLPLM | En_Gen | 2.69 1.75 2.76 1.82 2.17 2.26 | 2 of 18 (2.92) |
| KMKQSIEGNPKNWNSIA | DVDSTTE | QQYARLPLF | En_Gibbs | 0.12 0.27 0.05 0.03 -0.08 0.72 | 2 of 18 (3.56) |
| KVSMLGLYGQRNKNSVA | EASTRES | QQYHRLPLS | GP_Gibbs | -0.23 -0.42 -0.37 -0.32 -0.44 -0.15 | 1 of 18 (2.19) |
| KSMQLEQYEDRNKNSVA | EASTRCS | QQYHRLPLS | GP_Gibbs | 0.05 0.09 -0.15 -0.01 -0.22 -0.01 | 2 of 18 (2.81) |
| KLSGLMQSSKFAKNNVA | ENNTRED | QQYDRLPLS | En_Gen | n.d. n.d. n.d. n.d. 4.18 n.d. | 0 of 18 |
| IVSQLMLWGYHAKNSIA | EAQMRLN | QQYDRLPLI | En_Gen | n.d. n.d. n.d. n.d. 1.10 n.d. | 1 of 18 (0.33) |
| KINERMRSGENSQHSIA | NATEIVK | QQYHNLPLG | En_Gibbs | 1.52 2.43 1.50 1.73 1.31 1.71 | 0 of 18 |
| MFSQLFMYGSRNVNSVA | QASTRES | QQYDRLPLI | En_HC | 1.49 1.64 1.06 1.31 1.27 1.67 | 0 of 18 |
| SLTSHEEEKEGAEASVA | NAMMLES | QQYHRLPLM | En_Gibbs | 0.68 1.10 0.59 0.56 0.84 1.24 | 2 of 18 (1.95) |
| TLSDLMYMESRNVNSVA | DLVKRES | QQYHRLPLS | En_HC | 0.15 0.00 0.05 -0.22 -0.07 0.12 | 1 of 18 (2.62) |
| HITYGMMVAGRHSKSIA | QAETRAK | QQYDRLPLM | En_Gen | 0.45 0.44 0.26 0.38 0.37 0.49 | 1 of 18 (2.41) |
| IISQSMLIESATHNSIA | QTETREE | QQYHHLPLI | En_HC | 0.50 1.50 0.70 n.d. 2.09 1.49 | 0 of 18 |
| KIGDMVHTLSRNKNSIA | DMRTRES | QQYYRLPLS | En_HC | 1.66 1.58 1.61 2.08 2.21 1.93 | 1 of 18 (3.79) |
| KLQGSFMMLSRNDNSVA | DASTRES | QQYHRLPLS | GP_Gibbs | 0.14 -0.22 -0.19 -0.36 -0.16 0.04 | 1 of 18 (2.11) |
| KLQQQELYESRNKNSVA | NASDRQS | QQYHRLPLS | GP_Gibbs | -0.08 -0.20 -0.29 -0.30 -0.28 -0.06 | 2 of 18 (3.67) |
| KWSQSVPMGDRNKNSVA | SAHKRES | QQYHRLPLS | GP_Gibbs | 1.25 1.41 1.36 0.70 1.46 1.62 | 0 of 18 |

Data: MIT Lincoln Laboratory AlphaSeq set, Li et al. 2023, doi:10.1038/s41467-023-39022-2, as distributed in FLAb.